# Results from ChEMBL document CHEMBL1949549, “Concise synthesis of (+)-conduritol F and inositol analogues from naturally available (+)-proto-quercitol and their glucosidase inhibitory activity” (Bioorg Med Chem Lett, 2012).
# Protein sequences, listed by entry. Tags and fused reporters are not part of them. Residues count along the entry.
# UniProt P23739, 1014-1841 limits assumed: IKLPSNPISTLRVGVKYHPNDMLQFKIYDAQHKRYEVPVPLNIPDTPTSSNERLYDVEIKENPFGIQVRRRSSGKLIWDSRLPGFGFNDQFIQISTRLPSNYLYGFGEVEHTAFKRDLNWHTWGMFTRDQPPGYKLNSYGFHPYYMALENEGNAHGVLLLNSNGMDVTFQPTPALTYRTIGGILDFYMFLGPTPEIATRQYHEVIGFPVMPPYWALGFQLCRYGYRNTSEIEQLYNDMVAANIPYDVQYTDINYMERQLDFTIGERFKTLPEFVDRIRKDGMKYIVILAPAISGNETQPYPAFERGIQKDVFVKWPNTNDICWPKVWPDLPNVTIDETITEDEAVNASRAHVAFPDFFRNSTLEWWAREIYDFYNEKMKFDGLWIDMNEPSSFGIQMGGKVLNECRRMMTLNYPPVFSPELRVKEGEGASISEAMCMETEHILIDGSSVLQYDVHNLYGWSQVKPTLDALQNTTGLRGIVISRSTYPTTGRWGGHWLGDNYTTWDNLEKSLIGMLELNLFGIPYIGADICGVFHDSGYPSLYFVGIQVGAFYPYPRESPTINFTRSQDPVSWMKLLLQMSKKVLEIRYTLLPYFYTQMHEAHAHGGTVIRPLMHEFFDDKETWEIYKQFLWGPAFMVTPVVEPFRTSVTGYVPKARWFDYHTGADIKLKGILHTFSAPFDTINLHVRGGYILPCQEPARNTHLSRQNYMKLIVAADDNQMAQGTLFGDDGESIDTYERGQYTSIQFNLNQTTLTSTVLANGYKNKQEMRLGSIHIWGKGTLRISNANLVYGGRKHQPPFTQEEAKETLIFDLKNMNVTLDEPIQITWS
# UniProt P23739, 1-1013 limits assumed: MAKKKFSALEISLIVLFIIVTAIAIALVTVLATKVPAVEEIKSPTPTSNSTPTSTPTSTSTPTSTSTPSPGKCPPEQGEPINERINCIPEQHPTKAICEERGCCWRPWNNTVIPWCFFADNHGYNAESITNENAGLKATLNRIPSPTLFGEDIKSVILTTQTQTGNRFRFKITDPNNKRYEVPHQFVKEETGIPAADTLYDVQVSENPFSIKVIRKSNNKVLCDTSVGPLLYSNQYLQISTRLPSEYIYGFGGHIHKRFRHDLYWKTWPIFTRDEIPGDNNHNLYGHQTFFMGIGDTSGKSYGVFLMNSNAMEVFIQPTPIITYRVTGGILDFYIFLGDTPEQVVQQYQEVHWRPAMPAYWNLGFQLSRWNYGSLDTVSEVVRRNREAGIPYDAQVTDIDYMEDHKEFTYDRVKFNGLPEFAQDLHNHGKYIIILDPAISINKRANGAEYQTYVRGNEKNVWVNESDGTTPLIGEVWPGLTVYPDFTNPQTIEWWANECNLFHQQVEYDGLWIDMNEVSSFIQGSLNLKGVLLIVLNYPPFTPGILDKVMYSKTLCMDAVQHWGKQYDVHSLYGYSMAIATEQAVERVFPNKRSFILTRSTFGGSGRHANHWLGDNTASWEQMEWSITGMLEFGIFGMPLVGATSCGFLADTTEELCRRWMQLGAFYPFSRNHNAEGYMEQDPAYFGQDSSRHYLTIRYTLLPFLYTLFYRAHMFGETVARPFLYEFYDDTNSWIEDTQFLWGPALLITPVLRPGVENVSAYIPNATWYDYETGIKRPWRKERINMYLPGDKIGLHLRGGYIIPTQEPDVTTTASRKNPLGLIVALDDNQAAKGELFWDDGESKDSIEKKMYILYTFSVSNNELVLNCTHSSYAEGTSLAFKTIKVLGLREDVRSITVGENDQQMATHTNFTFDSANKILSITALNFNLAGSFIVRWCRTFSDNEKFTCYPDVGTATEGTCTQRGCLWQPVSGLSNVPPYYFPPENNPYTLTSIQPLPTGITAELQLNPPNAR
# Target: Sucrase-isomaltase, intestinal (Rattus norvegicus, UniProt P23739)
# Experiment: Inhibition of rat intestinal alpha-glucosidase sucrase using sucrose as substrate preincubated for 10 mins prior substrate addition measured after 40 mins by spectrophotometry
smiles,measurement,value
C[C@H]1O[C@H](O[C@H]2[C@H](O)[C@@H](O)[C@@H](O[C@H]3[C@H](O)[C@@H](O)C(O)O[C@@H]3CO)O[C@@H]2CO)[C@H](O)[C@@H](O)[C@@H]1N[C@H]1C=C(CO)[C@@H](O)[C@H](O)[C@H]1O (stereo partly specified) [ACARBOSE],IC50,2380 nM
